The chains behind the UniProt entries cited, without tags or fusion partners.
UniProt Q969S8, whole entry, species assumed: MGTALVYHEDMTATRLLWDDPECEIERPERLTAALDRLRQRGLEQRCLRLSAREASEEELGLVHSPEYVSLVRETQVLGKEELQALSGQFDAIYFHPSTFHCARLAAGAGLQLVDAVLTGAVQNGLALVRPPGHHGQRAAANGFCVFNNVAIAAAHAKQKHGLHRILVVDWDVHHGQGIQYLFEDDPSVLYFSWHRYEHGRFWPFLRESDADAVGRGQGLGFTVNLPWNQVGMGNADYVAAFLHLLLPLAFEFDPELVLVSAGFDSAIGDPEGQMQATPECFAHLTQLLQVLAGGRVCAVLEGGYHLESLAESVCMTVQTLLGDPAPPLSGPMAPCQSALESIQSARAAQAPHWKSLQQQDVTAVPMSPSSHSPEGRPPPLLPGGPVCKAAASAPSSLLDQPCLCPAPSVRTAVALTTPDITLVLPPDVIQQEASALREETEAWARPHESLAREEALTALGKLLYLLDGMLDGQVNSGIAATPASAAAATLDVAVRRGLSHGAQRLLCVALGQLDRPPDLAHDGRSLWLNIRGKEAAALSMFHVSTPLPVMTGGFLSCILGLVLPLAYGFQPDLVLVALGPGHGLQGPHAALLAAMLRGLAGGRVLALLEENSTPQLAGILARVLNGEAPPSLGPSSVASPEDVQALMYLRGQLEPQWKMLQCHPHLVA

In article PMC3724849 (PLoS ONE, 2013):

Key:
[1] = Pharmacokinetic study after single i.p. injection; conditions: 50 mg/kg i.p.; LLOQ = 0.018 µM
[2] = biological target: HDAC10 (Homo sapiens, UniProt Q969S8); test: biochemical

O=C(CCCCCCC(=O)Nc1ccccc1)NO [SAHA, Suberoylanilide hydroxamic acid]
SAHA in the brain at time points beyond 1 hour [1]: undetectable
IC50 [2]: 29 nM
